{"source": "paper PMC2920882", "about": "“GU81, a VEGFR2 antagonist peptoid, enhances the anti-tumor activity of doxorubicin in the murine MMTV-PyMT transgenic model of breast cancer” (BMC Cancer, 2010)", "key": {"[1]": {"tested_on": "MMTV-PyMT tumors", "conditions": "1-way ANOVA"}, "[2]": {"tested_on": "4T1 syngenic breast cancer model", "conditions": "4T1 syngeneic model; cited from earlier work"}}, "note": "Entries after “also recorded” stand apart in the source; their conditions may differ.", "data": [{"smiles": "COCCN(CC(=O)N(CC(=O)N(CC(=O)N(CCCCN)CC(=O)N(CC(=O)N(CCCCN)CC(=O)N(CCCCN)CC(=O)NCCCCCC(=O)NCCC(=O)N[C@@H](CCCCNC(=O)CN(CCCCN)C(=O)CN(CCCCN)C(=O)CN(CC(C)C)C(=O)CN(CCCCN)C(=O)CN(Cc1ccc2c(c1)OCO2)C(=O)CN(CC(C)c1ccccc1)C(=O)CN(CCOC)C(=O)CN(CC(C)C)C(=O)CNCCCCN)C(N)=O)CC(C)C)Cc1ccc2c(c1)OCO2)CC(C)c1ccccc1)C(=O)CN(CC(C)C)C(=O)CNCCCCN", "note": "(stereo partly shown) [GU81]", "values": [{"measurement": "phospho-histone-3 positive cells (proliferation) vs control", "setting": "[1]; p ≤ 0.01 (doxorubicin, combination), 3 animals/group, 5 sections/animal", "value": "no effect on tumor cell proliferation or apoptosis; also recorded: no change in either proliferation or apoptosis markers"}, {"measurement": "cleaved (active) caspase-3 positive cells (apoptosis) vs control", "setting": "[1]; p ≤ 0.05 (doxorubicin), 3 animals/group, 5 sections/animal", "value": "no effect on tumor cell proliferation or apoptosis; also recorded: no change in either proliferation or apoptosis markers"}, {"measurement": "tumor growth index vs control", "setting": "[1]; phospho-histone-3 / cleaved caspase-3 positive cells per 200× field, p ≤ 0.05 for combination", "value": "no effect on tumor weight, histology, tumor fat content, or tumor growth index"}, {"measurement": "MVD (microvessel density), 4T1 model, single agent", "setting": "[2]", "value": "effectively reduces tumor size and MVD"}]}]}
